Literature values, collected in patent publication US20160378912A1, “STRUCTURE-BASED MODELING AND TARGET-SELECTIVITY PREDICTION” (EPIGENETX, LLC, priority 2013, published 2016).

Protein sequences, listed by entry. Tags and fused reporters are not part of them.
UniProt Q13547, whole entry: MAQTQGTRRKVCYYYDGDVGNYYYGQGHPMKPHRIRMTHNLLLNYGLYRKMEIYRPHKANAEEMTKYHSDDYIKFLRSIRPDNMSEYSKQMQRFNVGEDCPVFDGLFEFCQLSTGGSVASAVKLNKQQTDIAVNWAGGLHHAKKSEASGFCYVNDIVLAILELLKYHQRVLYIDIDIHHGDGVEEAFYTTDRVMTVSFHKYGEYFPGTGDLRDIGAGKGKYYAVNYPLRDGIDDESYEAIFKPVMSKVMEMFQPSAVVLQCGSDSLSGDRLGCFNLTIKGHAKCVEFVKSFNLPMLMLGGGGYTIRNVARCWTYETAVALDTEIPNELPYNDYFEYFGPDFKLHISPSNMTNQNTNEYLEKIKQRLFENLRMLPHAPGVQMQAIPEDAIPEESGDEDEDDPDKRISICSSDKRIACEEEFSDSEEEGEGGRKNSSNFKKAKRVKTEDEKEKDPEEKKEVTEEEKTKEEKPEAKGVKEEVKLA
UniProt Q92769, whole entry: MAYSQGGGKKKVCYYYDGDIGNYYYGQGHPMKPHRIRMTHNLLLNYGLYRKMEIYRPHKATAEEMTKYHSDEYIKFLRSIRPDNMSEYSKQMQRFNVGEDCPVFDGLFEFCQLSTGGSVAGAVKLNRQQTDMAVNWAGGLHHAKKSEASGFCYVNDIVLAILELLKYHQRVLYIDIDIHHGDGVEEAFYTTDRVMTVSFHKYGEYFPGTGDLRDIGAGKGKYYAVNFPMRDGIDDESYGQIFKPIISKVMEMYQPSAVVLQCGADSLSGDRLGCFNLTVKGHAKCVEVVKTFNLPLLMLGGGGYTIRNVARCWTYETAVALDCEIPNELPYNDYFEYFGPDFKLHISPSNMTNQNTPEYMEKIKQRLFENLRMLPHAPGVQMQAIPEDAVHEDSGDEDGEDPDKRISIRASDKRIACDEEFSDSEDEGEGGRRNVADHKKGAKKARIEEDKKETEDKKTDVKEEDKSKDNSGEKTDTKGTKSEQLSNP

How the values were obtained:
HDAC1 = HDAC1 (Homo sapiens, UniProt Q13547); details: cited from earlier work
HDAC2 = HDAC2 (Homo sapiens, UniProt Q92769); details: cited from earlier work

| Substance | Exp. pIC50 (HDAC1) | IC50 (HDAC1; read-out: IC50) | Exp. pIC50 (HDAC2) | IC50 (HDAC2) | pIC50exp (HDAC1; HDAC1, experimental value of modeled complex) | pIC50 (HDAC1; HDAC1, training set composition) | IC50 (HDAC1; HDAC1, training set, read-out: HDACs inhibitory activities IC50) |
| --- | --- | --- | --- | --- | --- | --- | --- |
| Largazolethiol | 8.92 | 1.2 nM | 8.46 | 3.5 nM | – | – | – |
| Oxamflatin | – | – | – | – | 7.301 | 7.30 | 50 nM |

Where two headings read alike, the source gives them in different places.
